Reference: patent publication US9340590B2 (priority 2011, dated 2016)

The chains behind the UniProt entries cited, without tags or fusion partners.
UniProt Q15858, whole entry, looked up: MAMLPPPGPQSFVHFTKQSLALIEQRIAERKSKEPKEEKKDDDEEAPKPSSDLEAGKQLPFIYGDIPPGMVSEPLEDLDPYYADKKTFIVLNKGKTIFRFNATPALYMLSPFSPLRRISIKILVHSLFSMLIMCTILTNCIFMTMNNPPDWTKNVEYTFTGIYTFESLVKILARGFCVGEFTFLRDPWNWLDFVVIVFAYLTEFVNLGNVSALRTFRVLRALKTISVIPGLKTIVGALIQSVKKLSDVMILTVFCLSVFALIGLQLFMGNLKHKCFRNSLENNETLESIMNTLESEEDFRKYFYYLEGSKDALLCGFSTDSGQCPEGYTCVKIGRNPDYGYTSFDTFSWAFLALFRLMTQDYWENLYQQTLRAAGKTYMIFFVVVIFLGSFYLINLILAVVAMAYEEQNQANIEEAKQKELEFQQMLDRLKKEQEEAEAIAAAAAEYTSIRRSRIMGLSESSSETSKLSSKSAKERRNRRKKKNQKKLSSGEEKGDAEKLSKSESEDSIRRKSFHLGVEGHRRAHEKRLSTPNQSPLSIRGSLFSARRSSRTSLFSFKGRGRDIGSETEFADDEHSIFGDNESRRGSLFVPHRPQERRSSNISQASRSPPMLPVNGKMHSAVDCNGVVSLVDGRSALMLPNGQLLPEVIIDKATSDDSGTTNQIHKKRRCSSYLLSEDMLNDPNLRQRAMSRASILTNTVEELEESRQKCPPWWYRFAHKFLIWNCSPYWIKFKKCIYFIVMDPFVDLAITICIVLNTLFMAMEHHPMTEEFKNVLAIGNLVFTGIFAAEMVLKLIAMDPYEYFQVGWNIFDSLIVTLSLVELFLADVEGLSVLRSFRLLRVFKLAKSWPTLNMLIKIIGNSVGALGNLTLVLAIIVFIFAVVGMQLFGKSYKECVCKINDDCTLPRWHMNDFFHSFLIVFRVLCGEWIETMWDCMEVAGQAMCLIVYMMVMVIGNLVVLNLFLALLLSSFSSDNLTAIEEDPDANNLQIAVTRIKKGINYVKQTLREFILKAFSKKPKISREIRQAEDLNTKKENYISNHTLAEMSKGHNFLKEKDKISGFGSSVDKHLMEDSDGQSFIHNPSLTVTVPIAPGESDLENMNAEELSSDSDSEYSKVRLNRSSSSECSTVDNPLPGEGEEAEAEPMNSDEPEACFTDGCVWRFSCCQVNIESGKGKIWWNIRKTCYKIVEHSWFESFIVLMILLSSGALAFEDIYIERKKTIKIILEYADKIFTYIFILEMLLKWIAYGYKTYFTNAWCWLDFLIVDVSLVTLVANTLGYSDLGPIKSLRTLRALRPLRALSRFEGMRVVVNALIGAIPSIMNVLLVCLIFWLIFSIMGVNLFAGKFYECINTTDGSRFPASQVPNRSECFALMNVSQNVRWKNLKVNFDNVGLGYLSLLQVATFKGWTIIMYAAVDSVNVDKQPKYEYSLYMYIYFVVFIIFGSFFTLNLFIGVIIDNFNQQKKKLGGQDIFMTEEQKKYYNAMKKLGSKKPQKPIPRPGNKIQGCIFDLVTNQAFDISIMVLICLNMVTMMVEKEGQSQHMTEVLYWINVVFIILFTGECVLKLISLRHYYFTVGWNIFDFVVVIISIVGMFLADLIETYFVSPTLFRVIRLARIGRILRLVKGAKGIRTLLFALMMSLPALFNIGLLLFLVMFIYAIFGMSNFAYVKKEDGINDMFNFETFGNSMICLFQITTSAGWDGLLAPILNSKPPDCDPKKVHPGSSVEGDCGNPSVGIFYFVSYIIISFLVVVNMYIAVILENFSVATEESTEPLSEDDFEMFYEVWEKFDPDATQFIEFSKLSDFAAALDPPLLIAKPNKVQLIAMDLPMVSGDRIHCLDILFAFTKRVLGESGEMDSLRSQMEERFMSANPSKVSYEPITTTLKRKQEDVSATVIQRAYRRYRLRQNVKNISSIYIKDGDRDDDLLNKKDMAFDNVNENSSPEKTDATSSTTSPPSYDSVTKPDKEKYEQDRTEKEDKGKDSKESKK

Target: hNav1.7 (Homo sapiens, UniProt Q15858)
Test: cell-based
Assay type: cell-based

Biotin-Ahx-[Ala5,Phe6,Atz(2 kDa EtO-PEG*-{Biotin-Ahx-[Ala5,Phe6,Atz13*,Leu26,Arg28]GpTx-1(1-34)})13,Leu26,Arg28]GpTx-1(1-34) [Homodimeric Conjugate 4]
Nav1.4/Nav1.7 Use: 38
Nav1.5/Nav1.7 Use: >110
IC50 (read-out: Nav1.7 Use IC50): 91 nM

CC[C@H](C)[C@@H]1NC(=O)[C@@H]2CSSC[C@@H]3NC(=O)[C@H](C(C)C)NC(=O)[C@H](CC(C)C)NC(=O)[C@H](CC(N)=O)NC(=O)[C@@H]4CCCN4C(=O)[C@H](CCCNC(=N)N)NC(=O)[C@H](CSSC[C@H](NC(=O)[C@@H](N)CC(=O)O)C(=O)N[C@@H](CC(C)C)C(=O)NCC(=O)N[C@@H](C)C(=O)N[C@@H](CC(C)C)C(=O)N[C@@H](CCCNC(=N)N)C(=O)N[C@@H](CCCCN)C(=O)N2)NC(=O)[C@H](CSSC[C@@H](C(=O)N[C@@H](CCCCN)C(=O)N[C@@H](Cc2ccc(O)cc2)C(=O)N[C@H](C(=O)N[C@@H](Cc2ccccc2)C(N)=O)C(C)C)NC(=O)[C@H](Cc2c[nH]c4ccccc24)NC(=O)[C@H](CCCNC(=N)N)NC(=O)[C@H](Cc2cnc[nH]2)NC(=O)[C@H]([C@@H](C)O)NC(=O)[C@H](CCCNC(=N)N)NC(=O)[C@H](CO)NC3=O)NC(=O)[C@H](CCCCN)NC(=O)[C@H](CC(=O)O)NC(=O)[C@H](CC(N)=O)NC(=O)[C@H](CC(=O)O)NC(=O)[C@@H]2CCCN2C1=O [[Ala5;Leu6;Arg28]GpTx-1(1-34)]
IC50 (Nav1.7 Use IC50): 9 nM

CC[C@H](C)[C@@H]1NC(=O)[C@@H]2CSSC[C@@H]3NC(=O)[C@H](C(C)C)NC(=O)[C@H](CC(C)C)NC(=O)[C@H](CC(N)=O)NC(=O)[C@@H]4CCCN4C(=O)[C@H](CCCNC(=N)N)NC(=O)[C@H](CSSC[C@H](NC(=O)[C@@H](N)CC(=O)O)C(=O)N[C@@H](CC(C)C)C(=O)NCC(=O)N[C@@H](C)C(=O)N[C@@H](Cc4ccccc4)C(=O)N[C@@H](CCCNC(=N)N)C(=O)N[C@@H](CCCCN)C(=O)N2)NC(=O)[C@H](CSSC[C@@H](C(=O)N[C@@H](CCCCN)C(=O)N[C@@H](Cc2ccc(O)cc2)C(=O)N[C@H](C(=O)N[C@@H](Cc2ccccc2)C(N)=O)C(C)C)NC(=O)[C@H](Cc2c[nH]c4ccccc24)NC(=O)[C@H](CCCNC(=N)N)NC(=O)[C@H](Cc2cnc[nH]2)NC(=O)[C@H]([C@@H](C)O)NC(=O)[C@H](CCCNC(=N)N)NC(=O)[C@H](CO)NC3=O)NC(=O)[C@H](CCCCN)NC(=O)[C@H](CC(=O)O)NC(=O)[C@H](CC(N)=O)NC(=O)[C@H](CC(=O)O)NC(=O)[C@@H]2CCCN2C1=O [[Ala5;Phe6;Arg28]GpTx-1(1-34)]
IC50 (Nav1.7 Use IC50): 12 nM

CC[C@H](C)[C@@H]1NC(=O)[C@@H]2CSSC[C@@H]3NC(=O)[C@H](C(C)C)NC(=O)[C@H](CC(C)C)NC(=O)[C@H](CC(N)=O)NC(=O)[C@@H]4CCCN4C(=O)[C@H](CCCNC(=N)N)NC(=O)[C@H](CSSC[C@H](NC(=O)[C@@H](N)CC(=O)O)C(=O)N[C@@H](CC(C)C)C(=O)NCC(=O)N[C@@H](C)C(=O)N[C@@H](CC(C)C)C(=O)N[C@@H](CCCNC(=N)N)C(=O)N[C@@H](CCCCN)C(=O)N2)NC(=O)[C@H](CSSC[C@@H](C(=O)N[C@@H](CCCCN)C(=O)N[C@@H](Cc2ccc(O)cc2)C(=O)N[C@H](C(=O)N[C@@H](Cc2ccccc2)C(N)=O)C(C)C)NC(=O)[C@H](Cc2c[nH]c4ccccc24)NC(=O)[C@H](CCCCN)NC(=O)[C@H](Cc2cnc[nH]2)NC(=O)[C@H]([C@@H](C)O)NC(=O)[C@H](CCCNC(=N)N)NC(=O)[C@H](CO)NC3=O)NC(=O)[C@H](CCCCN)NC(=O)[C@H](CC(=O)O)NC(=O)[C@H](CC(N)=O)NC(=O)[C@H](CC(=O)O)NC(=O)[C@@H]2CCCN2C1=O [[Ala5;Leu6]GpTx-1(1-34)]
IC50 (Nav1.7 Use IC50): 30 nM

Like-named read-outs stand apart in the source and are kept apart here.
